The values below come from article PMC11106675, “Synthesis of 1,4-azaphosphinine nucleosides and evaluation as inhibitors of human cytidine deaminase and APOBEC3A” (Beilstein Journal of Organic Chemistry, 2024).

Amino acid sequences for entries named in this document (tags omitted).
UniProt P32320, whole entry: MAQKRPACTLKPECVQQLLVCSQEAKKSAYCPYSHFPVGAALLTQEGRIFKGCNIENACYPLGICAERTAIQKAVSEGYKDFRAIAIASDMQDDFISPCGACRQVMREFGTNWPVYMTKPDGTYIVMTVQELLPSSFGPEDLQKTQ

Data set [1] is described as follows: Stability in aqueous solution (NMR samples). The text has this: Catalytic hydrogenation is usually used for the removal of benzyl protecting groups. However, standard hydrogenation conditions using 10% Pd/C led to reduction of the C=C double bond in the nucleobase, providing nucleoside 24 (Scheme 3). To circumvent this problem, we used poisoned Pd catalyst (Lindlar’s catalyst, 5% Pd/CaCO3/3% Pb) and obtained the desired nucleoside 18. Individual anomers of nucleosides 18 and 24 were separated on a C18 column using a gradient of CH3CN in H2O. Removal of toluoyl groups was accomplished in aq NH3, providing pure α- and β-nucleoside of Va and Vc, respectively, carrying a negatively charged phosphinic acid group.

Data set [2] concerns the target human cytidine deaminase (hCDA) (Homo sapiens, UniProt P32320). In words: UV kinetic assay of hCDA-catalysed 2'-deoxycytidine deamination. The following applies: pH 7.4, 25 °C, substrate dC, competitive inhibition assumed. The method, then: We monitored the hCDA-catalysed deamination of dC at 286 nm and analysed the kinetic profiles at various inhibitor concentrations using a global regression analysis of the kinetic data using Lambert’s W function. This method provides better estimates for the Michaelis–Menten constant (KM) and maximum velocity (Vmax) than nonlinear regression analysis of the initial rate (V0). […] Then, KM for the substrate and Ki for each inhibitor were calculated, assuming competitive nature of the inhibitors (Table 1).
We assumed that protonation of Va might result in some inhibition of hCDA. […] This means that the pH value of the assay should be close to pH 1.5 to see any meaningful effect of partially protonated compound Va, but hCDA would be denatured at this pH value. By lowering the pH value to 6.0, dZ (IIc) started to lose potency against hCDA (Table 1), which might be a result of protonation of the pyrimidine ring in dZ (IIc). […]
Figure S10. hCDA (27nM) catalysed deamination of 2'-deoxycitidine (⁓1.5 mM) in the absence (plus) and presence of 5 µM 2'-deoxyzebularine (IIc, asterisk) monitored by measuring absorbance at 286 nm over time in 100 mM NaCl, 1 mM TCEP, 50 mM phosphate buffer at 25 °C, at pH 7.4. […]
where mm(t) calculates the current substrate concentration with respect to the time, t. […] A summary of the measured inhibition […]
Uncertainty of Ki was calculated using error-propagation method. […]

Usually Ki stands for the equilibrium dissociation constant of an inhibitor or competing ligand from its target. Consider `NP1(=O)C=CN(C2C[C@H](O)[C@@H](CO)O2)C(=O)C1` (stereo partly drawn), for which the “stability under basic conditions” value in data set [1] (basic conditions) was “unstable”. Moreover, the stability in water result in data set [1] (pH 7.4) was “excellent stability”. This compound had a Ki in data set [2] of 8 µM.
